# Apparent affinities of Ab-14 variants for a coronavirus HR2 peptide

From the AlphaSeq antibody data of Li et al. 2023 (doi:10.1038/s41467-023-39022-2), copy in the FLAb collection.

All variants were tested on one target, the spike HR2 peptide PDVDLGDISGINAS (SARS-CoV-2).

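The parent was found by panning a naive human phage display library on the peptide. These sequences belong to a second round, designed from the earlier measurements on random variants of the parent. Several design methods are mixed in this list. The scFvs were displayed on barcoded MATa yeast, the peptide on MATalpha yeast. After mating in shaken culture at 30 °C for 16 h, diploids were selected and their barcode pairs sequenced. The ratio of observed to expected reads was calibrated, replicate by replicate, on BCL2-family standards whose Kd was known from biolayer interferometry. There are six technical replicates.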

Parent: Ab-14, a human scFv built as VH, the linker GGGGSGGGGSGGGGS, VL. Only the CDRs of the heavy chain vary.
VH: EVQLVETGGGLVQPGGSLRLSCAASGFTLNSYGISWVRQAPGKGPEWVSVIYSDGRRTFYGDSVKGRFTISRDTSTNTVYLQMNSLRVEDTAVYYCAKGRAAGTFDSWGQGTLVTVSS
VL: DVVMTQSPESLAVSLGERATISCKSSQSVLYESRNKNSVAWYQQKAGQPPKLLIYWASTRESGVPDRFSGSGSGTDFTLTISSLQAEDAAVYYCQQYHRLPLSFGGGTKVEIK

Each variant is given by its three heavy chain CDRs, as the data file delimits them; those of the parent are GFTLNSYGIS, VIYSDGRRTFYGDSVK, GRAAGTFDS. Variants here have at most six changes. Values are apparent Kd, the geometric mean of the replicates that gave a signal; lower means stronger binding. Where no diploid with the target was found in any replicate, the entry reads "nd": below detection, most likely a poor binder, though not proof of it. Some sequences occur more than once in the pool; their replicates are pooled. The range of this assay differs from that of the first round, and the authors advise against merging the two. The authors' rule: three or more of the six replicates give a measured affinity, fewer mean a poor binder. Nonspecific signal, from three strains lacking the peptide, appeared in 1% of pairings of all heavy chain designs, centred on 120 nM (5% of these signals below 7.0 nM); values are not corrected for it. The parent sequence was in this pool as ten entries: three were never detected, three once, and four in most replicates, with averages from 2.2 nM to 240 nM.

With GFWLNSYGIS / VIYSDGRRTFYGDSVK / GRAAGIFRS the result was nd (0 of 6 replicates). With GFDLNSYGIS / VIYSDGRRTFYLDSVK / GNAAGTFDS the result was 2.0 nM (6 of 6 replicates). For GFTLNDYGIS / VIYSDGRRTFYGDSVK / GMAAGTFDL, the assay gave 1.0 nM (6 of 6 replicates). With GFDLNSYGIS / VIYSDGRRTFYQDSVK / GKAAGTFDA the result was 2.0 nM (6 of 6 replicates). Variant GFTLNEYGIS / VIYSDGRRTFYGDSVK / GRDAGTFDS showed 11 nM (6 of 6 replicates). Variant GFTLNDYGIS / VIYADGRRTFYGDSVK / GRAKGTFDV showed 420 nM (1 of 6 replicates). Variant GFTLNSYGRS / VIYSDGRRTMYGDSVK / GRAMGTFDT showed nd (0 of 6 replicates). Variant GFTLNDYGIS / VIYSDGRRTFYWDSVK / GRAALTFIS gave nd (0 of 6 replicates).

With GFTLNSYGIS / VIYADGRRTFYADSVK / GRAAGTFDS the result was nd (0 of 6 replicates). Variant GFTLNSYGIS / VIYSDGRRTFYTDSVK / GREAGTFDT gave 830 pM (6 of 6 replicates). Variant GFTLNQYGIS / VIYSDGRRQFYSDSVK / GRAAGFFDS showed 14 µM (1 of 6 replicates). Variant GFDLNSYGIS / VIYSDGRRTFYADSVK / GRNAGTFDT showed 410 pM (6 of 6 replicates). Variant GFTLNSYGIS / VIYSDGKRTFYGDSVK / GRTAGTFDQ showed 22 nM (6 of 6 replicates). With GFTLNSYGIS / VIYSDGKRTFYSDDVK / GQAAGTFDT the result was 3.4 nM (6 of 6 replicates). Variant GFSLNEYGIS / VIYSDGRRTFYGDSVK / GQTAGTFDT gave 2.9 nM (6 of 6 replicates). Variant GFTLNSYGIS / VIYSDGRRTFYDDSVK / GQLAGTFDL showed 19 nM (4 of 6 replicates).

With GFGLNEYGIS / VIYSDGRRTFYIDSVK / GHAAGTFDS the result was 1.1 nM (6 of 6 replicates). Variant GFSLNEYGIS / VIYSDGRRTFYCDSVK / GPAAGTFDS showed 24 nM (6 of 6 replicates). With GFTLNSYGIS / VIYSDGRRTFYGDSVK / GRMAGTFDS the result was 98 nM (4 of 6 replicates). For GFNLNEYGIS / VIYSDGRRTFYGDQVK / GKAAGTFDS, the assay gave 1.7 nM (5 of 6 replicates). Variant GFDLNSYGIS / VIYSDGRRTFYGDSVK / GHEAGTFDS gave 640 pM (6 of 6 replicates). For GFDLNSYGIS / VIYSDGRRTFYGDSVK / GDAAGTFDS, the assay gave 6.8 nM (6 of 6 replicates). With GFTLNSYGIS / VIYSDGRRTFYSDSVK / GQLAGSFDT the result was nd (0 of 6 replicates). Variant GFELNSYGIS / VIYSDGMRTFYVDSVK / GRTAGTFDS gave 32 nM (6 of 6 replicates).

With GFSLNSYGIS / VIYSDGRRTFYGDNVK / GKTAGTFDS the result was 1.9 nM (6 of 6 replicates). Variant GFSLNSYGIS / VIYSDGRRTFYVDDVK / GSAAGTFDS showed 370 pM (6 of 6 replicates). With GNTLNEYGIS / VIYSDGRRTFYGDSVK / GRTAGTFDS the result was 3.7 nM (6 of 6 replicates). For GFTLNDYGIS / VIYSDGRRTFYGDAVK / GRQAGTFDT, the assay gave 1.3 nM (4 of 6 replicates). With GFELNSYGIS / VIYSDGRRTFYADMVK / GRTAGTFDS the result was 4.9 nM (6 of 6 replicates). With GFNLNDYGIS / VIYSDGRRTFYGDSVR / GRNSGTFMS the result was nd (0 of 6 replicates). With GFTLNSYGLS / VIYSDGRRTFYGDSVK / GRAAGTFDS the result was nd (0 of 6 replicates). Variant GFDLNSYGIS / VIYSDGRRTFYGDSVK / GRQAGTFDF gave 13 nM (6 of 6 replicates).

Variant GFLLNDYGIS / VIYSDGRRTFYGDAVK / GRAAGTFDI gave 21 nM (6 of 6 replicates). Variant GFTLNDYGIS / VIYSDGRRTFYGDSVK / GRQAGTFIS showed nd (0 of 6 replicates). Variant GFTLEEYGIS / VIYSDGRRTFYGDSVK / GRAAGTFTS gave 28 nM (1 of 6 replicates). Variant GFSLNSYGIS / VIYSDGRRTFYADQVK / GKEAGTFDS showed 850 pM (6 of 6 replicates). With GFTLNSYGIS / VIYADGRRTFYGDSVK / GEAAGTFDS the result was 340 pM (12 of 12 replicates). Variant GFSLNSYGIS / VIYSDGRRTFYCDQVK / GKTAGTFDS gave nd (0 of 6 replicates). With GFWLNEYGIS / VIYSDGRRTFYHDSVK / GRAAGTFDK the result was nd (0 of 6 replicates). For GFELNEYGIS / VIYADGRRTFYGDSVK / GGAAGTFDG, the assay gave 1.1 nM (6 of 6 replicates).

For GFSLNEYGIS / VIYSDGRRTFYTDVVK / GRFAGTFDS, the assay gave 9.5 nM (6 of 6 replicates). With GFKLNSYGIS / VIYSDGRRTFYSDSVK / GQEAGTFDS the result was 510 pM (6 of 6 replicates). Variant GFDLNMYGIS / VIYSDGLRTFYHDSVK / VWAAGTFDS showed nd (0 of 6 replicates). Variant GRTLDSYGIS / VIYSDGRFTFYGDSVK / GRAAGTALS gave nd (0 of 6 replicates). Variant GFGLNSYGIS / VIYSDGRRTFYGDSVK / GQTAGTFDS gave 8.0 nM (6 of 6 replicates). Variant GFSLNEYGIS / VIYSDGRRTFYGDSVK / GRAAGTFDL gave 950 pM (6 of 6 replicates). Variant GFTLNSYGIS / VIYSDQRRTFYVDSVK / GRAAGTFDS gave nd (0 of 6 replicates). Variant GFSLNDYGIS / VIYSDGRRTFYVDSVK / GRQAGTFDS gave 1.8 nM (6 of 6 replicates).

For GFTLNSYGDS / VIYADGRRTAYGQSVK / GDAAGTFDS, the assay gave nd (0 of 6 replicates). For GFTLEDYGIS / VIYSDGRRTSYGDSVK / TREAGHFDS, the assay gave nd (0 of 6 replicates). For GFTLESYGIS / VIYADGRRTFYGDWVK / GRAAGTFKS, the assay gave nd (0 of 6 replicates). Variant GFSLNDYGIS / VIYSDGRRTFYGESVK / GRTAGTFDS showed 2.1 nM (6 of 6 replicates).

A selection of 5 entries from above:

GFTLNSYGIS / VIYSDGRRTFYTDSVK / GREAGTFDT: 830 pM (6 of 6 replicates).
GFTLNDYGIS / VIYSDGRRTFYGDAVK / GRQAGTFDT: 1.3 nM (4 of 6 replicates).
GFTLNEYGIS / VIYSDGRRTFYGDSVK / GRDAGTFDS: 11 nM (6 of 6 replicates).
GFTLNDYGIS / VIYSDGRRTFYWDSVK / GRAALTFIS: nd (0 of 6 replicates).
GFWLNEYGIS / VIYSDGRRTFYHDSVK / GRAAGTFDK: nd (0 of 6 replicates).